Read-outs that look alike come from different tables or passages of the source.
Experiments:
SJSA-1 = assay: Protocol B: CellTiter-Glo cell viability assay
[1] = test system: #18 mesothelioma cell line; assay: 72-hour Alamar Blue proliferation assay; type: cell-based; settings: Homo sapiens, read-out: Mean Compound 1 Proliferation IC50 (μM), cell line #18
Procedure: (§1) For all cell lines the number of viable cells was determined by measuring the conversion of Rezasurin (Alamar Blue) to Resorufin in response to mitochondrial activity of the viable cells. Alamar Blue™ (AbD Serotec/Bio-Rad, Hercules, CA, USA) was added to 10% of the well volume (20 μl/well) towards the end of the treatment period and incubated for a further 8-24 h. […] Each well was calculated as percentage of the mean DMSO control.

By UniProt entry, the sequences of proteins in these tests, tags left out.
UniProt Q00987, whole entry: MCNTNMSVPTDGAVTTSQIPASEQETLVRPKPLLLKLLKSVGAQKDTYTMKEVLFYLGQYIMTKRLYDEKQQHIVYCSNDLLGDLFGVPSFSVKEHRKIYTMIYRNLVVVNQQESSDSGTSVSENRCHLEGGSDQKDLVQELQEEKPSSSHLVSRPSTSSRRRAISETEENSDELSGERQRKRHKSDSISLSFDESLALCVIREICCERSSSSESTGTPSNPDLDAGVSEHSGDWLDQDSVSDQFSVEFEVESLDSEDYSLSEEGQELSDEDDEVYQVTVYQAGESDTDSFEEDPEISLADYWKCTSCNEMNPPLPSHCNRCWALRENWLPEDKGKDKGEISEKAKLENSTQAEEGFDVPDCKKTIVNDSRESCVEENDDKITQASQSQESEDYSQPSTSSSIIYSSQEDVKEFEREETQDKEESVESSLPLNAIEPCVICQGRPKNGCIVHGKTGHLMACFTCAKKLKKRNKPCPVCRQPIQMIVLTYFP

[2] = test system: #26 mesothelioma cell line; assay: 72-hour Alamar Blue proliferation assay; type: cell-based; settings: Homo sapiens, read-out: Mean Compound 1 Proliferation IC50 (μM), cell line #26
Procedure: as §1

[3] = test system: MESO-7T mesothelioma cell line; assay: 72-hour Alamar Blue proliferation assay; type: cell-based; settings: Homo sapiens, read-out: Mean Compound 1 Proliferation IC50 (μM), cell line MESO-7T
Procedure: as §1

[4] = molecular target: MDM2-p53 interaction (in vitro translated MDM2) (Homo sapiens (Human), UniProt Q00987); assay: MDM2-p53 interaction 96-well plate binding assay (ELISA); settings: read-out: MDM2 IC50
[5] = test system: SJSA-1 (p53 wild-type, MDM2 amplified osteosarcoma); assay: Protocol A: SRB growth inhibition assay; settings: Homo sapiens, SJSA-1, read-out: SJSA-1 IC50 (μM) (Protocol A)
[6] = read-out: SJSA1 IC50 (μM) (Protocol B), Protocol B

Molecule	IC50 (SJSA-1; [6])	further results
6-{[(1R)-1-(4-Chlorophenyl)-7-fluoro-5-(2-hydroxybut-3-en-2-yl)-1-{[1-(hydroxymethyl)cyclopropyl]methoxy}-3-oxo-2,3-dihydro-1H-isoindol-2-yl]methyl}pyridine-3-carbonitrile [Example 412]	0.27 µM	
6-{[(1R)-1-(4-Chlorophenyl)-7-fluoro-5-(2-hydroxybut-3-en-2-yl)-1-{[1-(hydroxymethyl)cyclopropyl]methoxy}-3-oxo-2,3-dihydro-1H-isoindol-2-yl]methyl}pyridine-3-carbonitrile [Example 413]	0.24 µM	
6-{[(1R)-1-(4-chlorophenyl)-7-fluoro-1-({1-[hydroxy(^2H2)methyl]cyclopropyl}(^2H2)methoxy)-5-[1-hydroxy-1-(1-methyl-1H-pyrazol-4-yl)ethyl]-3-oxo-2,3-dihydro-1H-isoindol-2-yl]methyl}pyridine-3-carbonitrile [Example 353]	0.27 µM	
6-{[(1R)-1-(4-chlorophenyl)-7-fluoro-1-{[1-(hydroxymethyl)cyclopropyl]methoxy}-3-oxo-5-(1,1,1-trifluoro-2-hydroxypropan-2-yl)-2,3-dihydro-1H-isoindol-2-yl]methyl}pyridine-3-carbonitrile [Example 416]	0.15 µM	
6-{[(1R)-1-(4-chlorophenyl)-7-fluoro-1-{[1-(hydroxymethyl)cyclopropyl]methoxy}-3-oxo-5-(1,1,1-trifluoro-2-hydroxypropan-2-yl)-2,3-dihydro-1H-isoindol-2-yl]methyl}pyridine-3-carbonitrile [Example 417]	0.41 µM	
6-{[(1R)-1-(4-chlorophenyl)-7-fluoro-5-(2-hydroxybutan-2-yl)-1-{[1-(hydroxymethyl)cyclopropyl]methoxy}-3-oxo-2,3-dihydro-1H-isoindol-2-yl]methyl}pyridine-3-carbonitrile [Example 410]	0.19 µM	
CC[C@@](O)(c1cc(F)c2c(c1)C(=O)N([C@H](c1ccc(Cl)cc1)[C@H](C)C(=O)O)[C@@]2(OC)c1ccc(Cl)cc1)C1CCOCC1 [Compound 1, (2S,3S)-3-(4-chlorophenyl)-3-[(1R)-1-(4-chlorophenyl)-7-fluoro-5-[(1S)-1-hydroxy-1-(oxan-4-yl)propyl]-1-methoxy-3-oxo-2,3-dihydro-1H-isoindol-2-yl]-2-methylpropanoic acid]		IC50 [1]: 0.11 µM; IC50 [2]: 0.36 µM; IC50 [3]: 0.36 µM
CC(C)(O)c1ccc2c(c1)C(=O)N(Cc1ccc(Cl)cc1)[C@@]2(OCC1(C(=O)O)CC1)c1ccc(Cl)cc1 [Example 5, 1-({[(1R)-1-(4-chlorophenyl)-2-[(4-chlorophenyl)methyl]-5-(2-hydroxypropan-2-yl)-3-oxo-2,3-dihydro-1H-isoindol-1-yl]oxy}methyl)cyclopropane-1-carboxylic acid]		IC50 [4]: 0.14 µM
CC[C@@](O)(c1cc(F)c2c(c1)C(=O)N(Cc1ccc(C#N)cc1)[C@@]2(O[C@H]1C[C@@H](O)C1)c1ccc(Cl)cc1)C1CCN(C)CC1 [Example 130, 4-{[(1R)-1-(4-chlorophenyl)-7-fluoro-5-[(1S)-1-hydroxy-1-(1-methylpiperidin-4-yl)propyl]-3-oxo-1-[cis-3-hydroxycyclobutoxy]-2,3-dihydro-1H-isoindol-2-yl]methyl}benzonitrile]		IC50 (SJSA-1; Homo sapiens, SJSA-1, 72 h, read-out: SJSA1 IC50 (μM) (Protocol B), SJSA-1, CellTiter-Glo, 72 hrs): 0.23 µM
CCC(O)(c1cc(F)c2c(c1)C(=O)N(Cc1ncc(C#N)cn1)[C@@]2(O[C@H]1CCOC1)c1ccc(Cl)cc1)c1cn(C)cn1 (stereo partly drawn) [Example 370, 2-{[(1R)-1-(4-chlorophenyl)-7-fluoro-5-[1-hydroxy-1-(1-methyl-1H-imidazol-4-yl)propyl]-3-oxo-1-[(3S)-oxolan-3-yloxy]-2,3-dihydro-1H-isoindol-2-yl]methyl}pyrimidine-5-carbonitrile]	3.5 µM	
CC(O)(c1cc(F)c2c(c1)C(=O)N(Cc1ncc(Cl)cn1)[C@@]2(OCC1(CO)CC1)c1ccc(Cl)cc1)[C@H]1CC[C@H](O)CC1 (stereo partly drawn) [Example 402, (3R)-3-(4-chlorophenyl)-2-[(5-chloropyrimidin-2-yl)methyl]-4-fluoro-6-{1-hydroxy-1-[trans-4-hydroxycyclohexyl]ethyl}-3-{[1-(hydroxymethyl)cyclopropyl]methoxy}-2,3-dihydro-1H-isoindol-1-one]	0.21 µM	
[2H]C([2H])([2H])C1(C([2H])([2H])O[C@]2(c3ccc(Cl)cc3)c3c(F)cc(C(O)(CC)c4cn(C)cn4)cc3C(=O)N2Cc2ccc(C#N)cn2)CC1 (stereo partly drawn) [Example 440, 6-{[(1R)-1-(4-chlorophenyl)-7-fluoro-1-({1-[hydroxy(^2H2)methyl]cyclopropyl}(^2H2)methoxy)-5-[1-hydroxy-1-(1-methyl-1H-imidazol-4-yl)propyl]-3-oxo-2,3-dihydro-1H-isoindol-2-yl]methyl}pyridine-3-carbonitrile]	1.9 µM	
CCC(O)(c1cc(F)c2c(c1)C(=O)N(Cc1ncc(Cl)cc1O)[C@@]2(OCCO)c1ccc(Cl)cc1)c1cn(C)cn1 (stereo partly drawn) [Example 443, (3R)-2-[(5-chloro-3-hydroxypyridin-2-yl)methyl]-3-(4-chlorophenyl)-4-fluoro-6-[1-hydroxy-1-(1-methyl-1H-imidazol-4-yl)propyl]-3-(2-hydroxyethoxy)-2,3-dihydro-1H-isoindol-1-one]		IC50 [5]: 0.11 µM
CCC(O)(c1cc(F)c2c(c1)C(=O)N(Cc1ccc(C#N)cn1)[C@@]2(O[C@H]1CCOC1)c1ccc(Cl)cc1)C1(F)CCOCC1 (stereo partly drawn) [Example 445, 6-{[(1R)-1-(4-chlorophenyl)-7-fluoro-5-[1-(4-fluorooxan-4-yl)-1-hydroxypropyl]-3-oxo-1-[(3S)-oxolan-3-yloxy]-2,3-dihydro-1H-isoindol-2-yl]methyl}pyridine-3-carbonitrile]	3.3 µM	
CCC(O)(c1cc(F)c2c(c1)C(=O)N(Cc1ccc(C#N)cn1)[C@@]2(O[C@H]1CCOC1)c1ccc(Cl)cc1)C1(F)CCOCC1 (stereo partly drawn) [Example 446, 6-{[(1R)-1-(4-chlorophenyl)-7-fluoro-5-[1-(4-fluorooxan-4-yl)-1-hydroxypropyl]-3-oxo-1-[(3S)-oxolan-3-yloxy]-2,3-dihydro-1H-isoindol-2-yl]methyl}pyridine-3-carbonitrile]		IC50 [5]: 0.018 µM
CCC(O)(CN1CCN(C)CC1)c1cc(F)c2c(c1)C(=O)N(Cc1ncc(Cl)cn1)[C@@]2(O[C@H]1CCOC1)c1ccc(Cl)cc1 (stereo partly drawn) [Example 523, (3R)-3-(4-chlorophenyl)-2-[(5-chloropyrimidin-2-yl)methyl]-4-fluoro-6-[2-hydroxy-1-(4-methylpiperazin-1-yl)butan-2-yl]-3-[(3S)-oxolan-3-yloxy]-2,3-dihydro-1H-isoindol-1-one]	1.5 µM	

The next lines start with results.

IC50 (SJSA-1; [6])	Molecule	further results
0.077 µM	6-{[(1R)-1-(4-chlorophenyl)-7-fluoro-5-(2-hydroxybutan-2-yl)-1-{[1-(hydroxymethyl)cyclopropyl]methoxy}-3-oxo-2,3-dihydro-1H-isoindol-2-yl]methyl}pyridine-3-carbonitrile [Example 411]	
0.43 µM	6-{[(1R)-1-(4-chlorophenyl)-7-fluoro-5-[1-hydroxy-1-(1-methyl-1H-pyrazol-4-yl)ethyl]-3-oxo-1-[(3S)-oxolan-3-yloxy]-2,3-dihydro-1H-isoindol-2-yl]methyl}pyridine-3-carbonitrile [Example 218]	
1.9 µM	6-{[(1R)-1-(4-chlorophenyl)-7-fluoro-5-[1-hydroxy-1-(1-methyl-1H-pyrazol-4-yl)ethyl]-3-oxo-1-[(3S)-oxolan-3-yloxy]-2,3-dihydro-1H-isoindol-2-yl]methyl}pyridine-3-carbonitrile [Example 344]	
0.3 µM	6-{[(1R)-1-(4-chlorophenyl)-7-fluoro-5-[hydroxy(1-methyl-1H-pyrazol-4-yl)methyl]-3-oxo-1-[(3S)-oxolan-3-yloxy]-2,3-dihydro-1H-isoindol-2-yl]methyl}pyridine-3-carbonitrile [Example 357]	
0.74 µM	6-{[(1R)-1-(4-chlorophenyl)-7-fluoro-5-[hydroxy(1-methyl-1H-pyrazol-4-yl)methyl]-3-oxo-1-[(3S)-oxolan-3-yloxy]-2,3-dihydro-1H-isoindol-2-yl]methyl}pyridine-3-carbonitrile [Example 360]	

From patent US20230338337A1, “BIOMARKERS FOR CANCER THERAPY USING MDM2 ANTAGONISTS” (OTSUKA PHARMACEUTICAL CO., LTD., priority 2019, published 2023)
